Reference: US9956229B2, “Acyclic cucurbit[n]uril type molecular containers to treat intoxication and decrease relapse rate in substance abuse disorders” (UNIVERSITY OF MARYLAND, COLLEGE PARK, priority 2014, dated 2018)

Settings: CB[7] 500.2 μM, TMSP 600.6 μM, methamphetamine 598.7 μM, sample determination

## O=C1N2CN3C(=O)N4CN5C(=O)N6CN7C(=O)N8CN9C(=O)N%10CN%11C(=O)N%12CN%13C(=O)N%14CN1C1C2N2CN%15C(=O)N(CN%16C(=O)N(CN%17C(=O)N(CN%18C(=O)N(CN%19C(=O)N(CN%20C(=O)N(CN1C2=O)C%14C%13%20)C%12C%11%19)C%10C9%18)C8C7%17)C6C5%16)C4C3%15 (stereo not shown) [CB[7], cucurbit[7]uril]
  Krel (methamphetamine versus TMSP for CB[7]): 6.72
